Consider two molecules from patent US20150268247A1, “Assay for Screening of Anti-Viral Compounds That Inhibit Specific Interaction Interfaces Between Cullin5 and an ElonginB/ElonginC/ CBF-beta/HIV-1 Vif Complex” (UNIVERSITY OF ROCHESTER, priority 2012, published 2015).

In assay [1] the target is T1, SOCS2SOCS-box/EloB/C ternary complex (human SOCS2 SOCS-box residues 158-198 / ElonginB 1-118 / ElonginC 17-112) (human), O14508. The assay can be described thus: fluorescence anisotropy, 5-FAM labelled peptide titrated with B/C/SOCS2 up to about 23 µM; anisotropy rises only from about 0.033 to about 0.041 [cont.) upper right panel]. A general note: Fluorescence polarisation rises when a labelled molecule tumbles more slowly, as on binding a larger partner.

For assay [2], the target named is T1, SOCS2SOCS-box/EloB/C ternary complex …. The assay can be described thus: fluorescence anisotropy, SOCS2/B/C [(-) control] titrated into 25 nM 5-FAM peptide; Sd ± 1.8.

The Kd is the free concentration of one partner at which half of the binding sites on the other are occupied at equilibrium, for simple one-to-one binding. In assay [1], LFSDVHAVCLWD (modifications not checked) [Cul5(43-54) peptide] showed a Kd of 15.6 µM.

In turn, LFSDVHAVCLWDDKGPAKIHQAL (modifications not checked) [Cul5(43-65) peptide] came in with a Kd in assay [2] of 7.3 µM.
